Source: US10604554B2, “Double-acylated GLP-1 derivatives” (Novo Nordisk A/S, priority 2012, dated 2020)
Like-named read-outs stand apart in the source and are kept apart here.

By UniProt entry, the sequences of proteins in these tests, tags left out. Residues count along the entry.
UniProt P43220, 24-463: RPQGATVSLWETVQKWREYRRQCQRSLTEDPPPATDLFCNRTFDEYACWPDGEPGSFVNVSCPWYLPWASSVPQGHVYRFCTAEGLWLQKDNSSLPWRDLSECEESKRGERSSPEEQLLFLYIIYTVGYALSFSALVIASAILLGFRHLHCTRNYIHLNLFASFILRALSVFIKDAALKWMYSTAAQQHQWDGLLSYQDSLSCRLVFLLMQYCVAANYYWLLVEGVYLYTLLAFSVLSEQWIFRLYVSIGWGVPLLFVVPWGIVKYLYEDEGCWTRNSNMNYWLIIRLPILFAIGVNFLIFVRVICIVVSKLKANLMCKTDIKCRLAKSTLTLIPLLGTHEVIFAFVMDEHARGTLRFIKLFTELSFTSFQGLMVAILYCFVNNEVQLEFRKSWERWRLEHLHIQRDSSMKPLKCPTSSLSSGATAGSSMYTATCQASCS

Assays:
human GLP-1 receptor = biological target: T1, human GLP-1 receptor (Homo sapiens, UniProt P43220); assay: GLP-1 receptor binding (SPA, displacement of 125I-GLP-1)
T1 construct: expressed in transfected cells; host or cells: BHK cells, clone FCW467-12A/KZ10-1 (parent line BHKTS13), further transfected with CRE luciferase
Method: The purpose of this experiment is to investigate the binding to the GLP-1 receptor of the GLP-1 derivatives, and how the binding is potentially influenced by the presence of albumin. This is done in an in vitro experiment as described below.
In order to test the binding of the derivatives to albumin, the assay was performed with a low concentration of albumin (0.001%—corresponding to the residual amount thereof in the tracer), as well as with a high concentration of albumin (2.0% added). A shift in the binding affinity, IC50, is an indication that the peptide in question binds to albumin, and thereby a prediction of a potential protracted pharmacokinetic profile of the peptide in question in animal models.
Species (in vitro): Hamster
Biological End Point: Receptor Binding
A stable transfected cell line and a high expressing clone were selected for screening. […]
The cells (approx. 80% confluence) were washed twice in PBS and harvested with Versene (aqueous solution of the tetrasodium salt of ethylenediaminetetraacetic acid), following which they were separated by centrifugation at 1000 rpm for 5 min. […] The resulting pellet was resuspended in Buffer 2, and the protein concentration was determined. […]
Test compounds, membranes, SPA-particles and [^125I]-GLP-1(7-36)NH2 were diluted in assay buffer. […] The plates were centrifuged (1500 rpm, 10 min) and counted in Topcounter.

[1] = tested on: Landrace Yorkshire Duroc (LYD) pigs; assay: Pharmacodynamic (PD) study in pigs, food intake; format: in vivo, pig; conditions: single s.c. dose 3.0 nmol/kg
Method: The purpose of this experiment was to investigate the effect of a couple of Example compounds on food intake in pigs. This was done in a pharmacodynamic (PD) study as described below, in which food intake was measured from 1 to 4 days after administration of a single dose of the GLP-1 derivative, as compared to a vehicle-treated control group.
Female Landrace Yorkshire Duroc (LYD) pigs, approximately 3 months of age, weighing approximately 30-35 kg were used (n=3-4 per group). The animals were housed in a group for approximately 1 week during acclimatisation to the animal facilities. During the experimental period the animals were placed in individual pens at least 2 days before dosing and during the entire experiment for measurement of individual food intake. The animals were fed ad libitum with pig fodder (Svinefoder Danish Top) at all times both during the acclimatisation and the experimental period. Food intake was monitored on line by logging the weight of fodder every 15 minutes. The system used was Mpigwin (Ellegaard Systems, Faaborg, Denmark).
The phosphate buffer serves as vehicle. Animals are dosed with a single subcutaneous dose of the GLP-1 derivative or vehicle (dose volume 0.025 ml/kg) on the morning of day 1, and food intake is measured for 1 day after dosing. On the last day of each study, 1-4 days after dosing, a blood sample for measurement of plasma exposure of the GLP-1 derivative is taken from the heart in anaesthetised animals. The animals are thereafter euthanised with an intra-cardial overdose of pentobarbitone.
Food intake is calculated as mean±SEM food intake in 24 h intervals (0-24 h, 24-48 h, and 48-72 h). In Table 6 below the food intake is indicated as percentage of the food intake of the vehicle group in the same time interval (dosage 3.0 nmol/kg).
Statistical comparisons of the food intake in the 24 h intervals in the vehicle vs. GLP-1 derivative group are done using two-way-ANOVA repeated measures, followed by Bonferroni post-test.

in vivo [2] = conditions: male, Göttingen, minipig, iv
in vivo [3] = conditions: male, Sprague Dawley, rat, iv

IC50 (human GLP-1 receptor; 0.001% HSA (low albumin), read-out: Receptor binding affinity IC50 (low HSA)): 0.32 nM
IC50 (human GLP-1 receptor; 2.0% HSA (high albumin), read-out: Receptor binding affinity IC50 (high HSA)): ≥ 1000 nM
half-life (in vivo [2]): 98 h
half-life (in vivo [3]): 25 h
Structure (SMILES): CC[C@H](C)[C@H](NC(=O)[C@H](Cc1ccccc1)NC(=O)[C@H](CCC(=O)O)NC(=O)[C@H](CCCCNC(=O)[C@@H](N)CCCCNC(=O)[C@@H](N)CCCCNC(=O)CC[C@H](NC(=O)CCCCCCCCCCCCCCC(=O)O)C(=O)O)NC(=O)[C@H](C)NC(=O)[C@H](C)NC(=O)[C@H](CCC(N)=O)NC(=O)CNC(=O)[C@H](CCC(=O)O)NC(=O)[C@H](CC(C)C)NC(=O)[C@H](Cc1ccc(O)cc1)NC(=O)[C@H](CO)NC(=O)[C@H](CO)NC(=O)[C@@H](NC(=O)[C@H](CC(=O)O)NC(=O)[C@H](CO)NC(=O)[C@@H](NC(=O)[C@H](Cc1ccccc1)NC(=O)[C@@H](NC(=O)CNC(=O)[C@H](CCC(=O)O)NC(=O)C(C)(C)NC(=O)[C@@H](N)Cc1c[nH]cn1)[C@@H](C)O)[C@@H](C)O)C(C)C)C(=O)N[C@@H](C)C(=O)N[C@@H](Cc1c[nH]c2ccccc12)C(=O)N[C@@H](CC(C)C)C(=O)N[C@H](C(=O)N[C@@H](CCCNC(=N)N)C(=O)NCC(=O)N[C@@H](CCCNC(=N)N)C(=O)N[C@@H](CCCCNC(=O)[C@@H](N)CCCCNC(=O)[C@@H](N)CCCCNC(=O)CC[C@H](NC(=O)CCCCCCCCCCCCCCC(=O)O)C(=O)O)C(=O)O)C(C)C [Example 6, N^ε26-[(2S)-2-amino-6-[[(2S)-2-amino-6-[[(4S)-4-carboxy-4-(15-carboxypentadecanoylamino)butanoyl]amino]hexanoyl]amino]hexanoyl], N^ε37-[(2S)-2-amino-6-[[(2S)-2-amino-6-[[(4S)-4-carboxy-4-(15-carboxypentadecanoylamino)butanoyl]amino]hexanoyl]amino]hexanoyl]-[Aib^8,Arg^34,Lys^37]-GLP-1-(7-37)-peptide]
PD in pig, food intake (% of vehicle) for hours 0-24 ([1]; 0-24 h): 84 % of vehicle
PD in pig, food intake (% of vehicle) for hours 24-48 ([1]; 24-48 h): 85 % of vehicle
PD in pig, food intake (% of vehicle) for hours 48-72 ([1]; 48-72 h): 73 % of vehicle
